Source: article PMC6524963

Molecular target: mRanBP1 (GST tag cleaved) (mouse) (UniProt P34022)
Assay: SEC; RanBP1, RanGTP and CRM1 from yeast or animals mixed at 2:5:1 molar ratio (RanGTP in excess); SDS-PAGE of the peaks

stoichiometry N: 2.05
Substance: human RanGTP (human Ran^L182A) (from UniProt P62826 1-216) (natural protein)
